# Ab-14 light chain CDR variants: yeast mating affinities

Target: peptide PDVDLGDISGINAS, taken from heptad repeat 2 (HR2) of SARS-CoV-2 spike.

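The parent was found by panning a naive human phage display library on the peptide. The variants were designed computationally from a first round of random CDR variants and then made and measured. Several design methods are mixed in this list. The assay is AlphaSeq: two haploid yeast populations carry antibody and antigen on their surface. Pairs that bind mate more often; barcode pairs of the diploids are counted by sequencing. Scores were corrected for input abundance and mapped to Kd with protein pairs of known affinity run in the same pool. The assay was run in six technical replicates.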

Parent: Ab-14, a human scFv built as VH, a 15-residue (Gly4Ser)3 linker, VL. Only the CDRs of the light chain vary.
VH: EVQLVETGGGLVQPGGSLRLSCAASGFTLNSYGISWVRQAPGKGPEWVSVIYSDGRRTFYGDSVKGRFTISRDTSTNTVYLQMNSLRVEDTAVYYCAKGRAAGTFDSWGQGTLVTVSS
VL: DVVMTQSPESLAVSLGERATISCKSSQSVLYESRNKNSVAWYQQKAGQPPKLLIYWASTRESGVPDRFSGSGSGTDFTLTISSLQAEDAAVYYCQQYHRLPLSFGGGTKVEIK

Variants are written as CDR1, CDR2 and CDR3 of the light chain (limits as in the source). Parent: KSSQSVLYESRNKNSVA, WASTRES, QQYHRLPLS.
This list holds designs with at most six substitutions.
Numbers give log10(Kd / nM), so 0 is 1 nM and 3 is 1 µM. Smaller is tighter.
The mean shown is taken over the replicates in which the pair was detected.
"nd" marks a missing value. The strain was present, yet no cells mated with the target were sequenced in any replicate, which points to weak or no binding.
The parent sequence was in this pool as ten entries: three were never detected, three once, and four in most replicates, with averages from 0.34 to 2.37.

For KSSQSVLMESENKNSVA | WASTREE | QQYHRLPLS, the assay gave 1.13 (6 of 6 replicates). With KSSESVLYESRNKNSVA | WASTRES | QQYHRLPLS the result was 0.93 (6 of 6 replicates). Variant KMSQSVLFESRNKNSVA | DASFRES | QQYHRLPLS showed 0.03 (6 of 6 replicates). Variant KIQQSVQYESRNKNSVA | NASDRQS | QQYHRLPLS gave -0.10 (6 of 6 replicates). With KFSQMDLYESRNKNNVA | DASTRSS | QQYHRLPLS the result was -0.43 (6 of 6 replicates). For KSSQVYLYESRNKNSVA | GASTRES | QQYHRLPLI, the assay gave 0.42 (6 of 6 replicates). Variant KLSQSVLYESRNKNSVA | EASTREQ | QQYHRLPLM showed -0.30 (6 of 6 replicates).

For KSKQSELYESRNKNSVA | WASTRES | QQYHRLPLS, the assay gave 1.52 (5 of 6 replicates). With KLSQSWLYESRNSNSVA | NASTRES | QQYHRLPLS the result was 0.06 (6 of 6 replicates). For KSQQSVPYESRNKNSVA | EASTRES | QQYHRLPLS, the assay gave 0.09 (6 of 6 replicates). For KCSQSVLYESRNKNSVA | NASTRES | QQYHRLPLS, the assay gave -0.04 (6 of 6 replicates). For KQSQSVMGEERNKNSVA | AASTREV | QQYHRLPLS, the assay gave 0.50 (6 of 6 replicates). Variant KLMQSVLYESRNKNSVA | NASTRYS | QQYHRLPLS showed 0.45 (6 of 6 replicates). Variant KLPQSELYESRNKNSVA | EASTREV | QQYHRLPLS showed -0.40 (6 of 6 replicates).

Variant KLSQSVLYESRNKNSVA | WASTRES | QQYHRLPLS gave 0.73 (10 of 12 replicates). Variant KLVNSTLYESRQKNSVA | YASTRES | QQYHRLPLS showed 1.57 (5 of 6 replicates). Variant HSSPSVKYESRNKNSVA | NASTRES | QQYHRLPLS gave 0.04 (6 of 6 replicates). With KSSQSGLYESRNKNSVA | DASTRES | QQYHRLPIS the result was 0.15 (6 of 6 replicates). Variant KFSQSVLYESRNKNSVA | EASTRES | NQYHRLPLS gave 3.31 (4 of 6 replicates). For KLDQSELYESRNKQSVA | NASQRES | QQYHRLPLS, the assay gave 0.27 (6 of 6 replicates). Variant KVSQSNLYESRNKNSVA | NASQRES | QQYHRLPLS gave -0.38 (6 of 6 replicates).

Variant KSQQGVLYESRNKNSVA | GASQRWS | QQYHRLPLS gave 0.72 (6 of 6 replicates). With KLQQSWPYESRNKNSVA | NASTRLS | QQYHRLPLS the result was -0.09 (6 of 6 replicates). Variant KSVQSVLYESRNKNSVA | WASTRSS | QQYHRLPLS gave nd (0 of 6 replicates). Variant KSSISYLYESRNFNSVA | EASTRES | QQYHRLPLS gave 0.58 (6 of 6 replicates). For KSSQSVANESRNKNSVA | AVSTREQ | QQYHRLPLS, the assay gave 0.55 (6 of 6 replicates). For KSSQSVLYESRNKNSVA | WHSTRES | QQYHRLPLS, the assay gave nd (0 of 6 replicates). For KVSQAKLYESRNKNSVA | DASTRES | QQYHRLPLS, the assay gave -0.64 (6 of 6 replicates).

Variant HWQPSVLYESRNKNSVA | NASTRES | QQYHRLPLS gave -0.26 (6 of 6 replicates). For KLSQSHLYESRNKNSVA | NASTRCS | QQYHRLPLS, the assay gave -0.07 (6 of 6 replicates). Variant KVSQSWLMESRNKNSVA | EASTRQS | QQYHRLPLS gave -0.23 (6 of 6 replicates). Variant KQSQSVLYESRNKNNVA | DASTRES | QQYHWLPLS showed 0.14 (6 of 6 replicates).

For reference, 3 entries of the list once more:

{"CDR-L1": "KVSQAKLYESRNKNSVA", "CDR-L2": "DASTRES", "CDR-L3": "QQYHRLPLS", "mean log10 Kd (nM)": "-0.64", "detected": "6 of 6"}
{"CDR-L1": "KVSQSWLMESRNKNSVA", "CDR-L2": "EASTRQS", "CDR-L3": "QQYHRLPLS", "mean log10 Kd (nM)": "-0.23", "detected": "6 of 6"}
{"CDR-L1": "KFSQSVLYESRNKNSVA", "CDR-L2": "EASTRES", "CDR-L3": "NQYHRLPLS", "mean log10 Kd (nM)": "3.31", "detected": "4 of 6"}

In the paper, a design with two or fewer of six values counts as a poor binder.
Values of this round are not directly comparable with the first-round values of the same sequences.
Three control strains display no target. For all light chain designs, 4% of the pairings with them gave a signal, with a median of 2.64 and one signal in twenty below 1.59, so weak values seen in few replicates may be background.
A sequence that the file lists under several names has all its replicates pooled.

Data: MIT Lincoln Laboratory AlphaSeq set, Li et al. 2023, doi:10.1038/s41467-023-39022-2, as distributed in FLAb.